Chains of the proteins cited; added tags and fusions are not shown. Residues count along the entry.
UniProt Q03164, 2719-3969 limits assumed: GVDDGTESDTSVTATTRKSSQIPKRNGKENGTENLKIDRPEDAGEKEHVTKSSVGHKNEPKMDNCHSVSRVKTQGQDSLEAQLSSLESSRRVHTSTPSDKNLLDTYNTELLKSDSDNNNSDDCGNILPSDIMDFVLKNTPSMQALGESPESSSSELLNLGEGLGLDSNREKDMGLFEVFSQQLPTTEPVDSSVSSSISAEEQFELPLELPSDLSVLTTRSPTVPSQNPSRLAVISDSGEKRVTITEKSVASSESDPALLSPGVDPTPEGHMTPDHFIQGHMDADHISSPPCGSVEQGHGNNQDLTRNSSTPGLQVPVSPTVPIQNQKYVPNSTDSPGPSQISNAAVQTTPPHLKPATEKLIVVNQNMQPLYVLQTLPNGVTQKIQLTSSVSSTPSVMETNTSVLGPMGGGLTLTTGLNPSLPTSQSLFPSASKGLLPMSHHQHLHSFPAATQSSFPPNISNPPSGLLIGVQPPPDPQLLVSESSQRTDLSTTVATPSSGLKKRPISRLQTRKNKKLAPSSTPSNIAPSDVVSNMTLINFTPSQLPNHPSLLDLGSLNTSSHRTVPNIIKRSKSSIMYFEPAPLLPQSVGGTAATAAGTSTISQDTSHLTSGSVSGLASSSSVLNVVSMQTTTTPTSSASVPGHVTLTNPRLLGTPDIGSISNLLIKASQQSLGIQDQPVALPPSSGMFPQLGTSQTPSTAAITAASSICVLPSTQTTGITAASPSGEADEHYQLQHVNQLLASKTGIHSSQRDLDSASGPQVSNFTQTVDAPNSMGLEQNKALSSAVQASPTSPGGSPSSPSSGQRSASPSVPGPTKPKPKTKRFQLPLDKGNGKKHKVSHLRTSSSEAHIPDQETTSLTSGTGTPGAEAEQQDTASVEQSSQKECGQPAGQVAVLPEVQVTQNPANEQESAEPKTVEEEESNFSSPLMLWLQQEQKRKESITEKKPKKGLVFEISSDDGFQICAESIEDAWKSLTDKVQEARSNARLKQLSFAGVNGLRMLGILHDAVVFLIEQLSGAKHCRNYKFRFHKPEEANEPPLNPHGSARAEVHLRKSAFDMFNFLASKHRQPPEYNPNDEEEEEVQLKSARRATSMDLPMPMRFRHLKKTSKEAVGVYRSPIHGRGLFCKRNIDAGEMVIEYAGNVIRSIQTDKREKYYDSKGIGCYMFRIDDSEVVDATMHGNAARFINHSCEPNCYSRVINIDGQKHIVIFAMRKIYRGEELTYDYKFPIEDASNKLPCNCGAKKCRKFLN
UniProt P25054, 2-2843 limits assumed: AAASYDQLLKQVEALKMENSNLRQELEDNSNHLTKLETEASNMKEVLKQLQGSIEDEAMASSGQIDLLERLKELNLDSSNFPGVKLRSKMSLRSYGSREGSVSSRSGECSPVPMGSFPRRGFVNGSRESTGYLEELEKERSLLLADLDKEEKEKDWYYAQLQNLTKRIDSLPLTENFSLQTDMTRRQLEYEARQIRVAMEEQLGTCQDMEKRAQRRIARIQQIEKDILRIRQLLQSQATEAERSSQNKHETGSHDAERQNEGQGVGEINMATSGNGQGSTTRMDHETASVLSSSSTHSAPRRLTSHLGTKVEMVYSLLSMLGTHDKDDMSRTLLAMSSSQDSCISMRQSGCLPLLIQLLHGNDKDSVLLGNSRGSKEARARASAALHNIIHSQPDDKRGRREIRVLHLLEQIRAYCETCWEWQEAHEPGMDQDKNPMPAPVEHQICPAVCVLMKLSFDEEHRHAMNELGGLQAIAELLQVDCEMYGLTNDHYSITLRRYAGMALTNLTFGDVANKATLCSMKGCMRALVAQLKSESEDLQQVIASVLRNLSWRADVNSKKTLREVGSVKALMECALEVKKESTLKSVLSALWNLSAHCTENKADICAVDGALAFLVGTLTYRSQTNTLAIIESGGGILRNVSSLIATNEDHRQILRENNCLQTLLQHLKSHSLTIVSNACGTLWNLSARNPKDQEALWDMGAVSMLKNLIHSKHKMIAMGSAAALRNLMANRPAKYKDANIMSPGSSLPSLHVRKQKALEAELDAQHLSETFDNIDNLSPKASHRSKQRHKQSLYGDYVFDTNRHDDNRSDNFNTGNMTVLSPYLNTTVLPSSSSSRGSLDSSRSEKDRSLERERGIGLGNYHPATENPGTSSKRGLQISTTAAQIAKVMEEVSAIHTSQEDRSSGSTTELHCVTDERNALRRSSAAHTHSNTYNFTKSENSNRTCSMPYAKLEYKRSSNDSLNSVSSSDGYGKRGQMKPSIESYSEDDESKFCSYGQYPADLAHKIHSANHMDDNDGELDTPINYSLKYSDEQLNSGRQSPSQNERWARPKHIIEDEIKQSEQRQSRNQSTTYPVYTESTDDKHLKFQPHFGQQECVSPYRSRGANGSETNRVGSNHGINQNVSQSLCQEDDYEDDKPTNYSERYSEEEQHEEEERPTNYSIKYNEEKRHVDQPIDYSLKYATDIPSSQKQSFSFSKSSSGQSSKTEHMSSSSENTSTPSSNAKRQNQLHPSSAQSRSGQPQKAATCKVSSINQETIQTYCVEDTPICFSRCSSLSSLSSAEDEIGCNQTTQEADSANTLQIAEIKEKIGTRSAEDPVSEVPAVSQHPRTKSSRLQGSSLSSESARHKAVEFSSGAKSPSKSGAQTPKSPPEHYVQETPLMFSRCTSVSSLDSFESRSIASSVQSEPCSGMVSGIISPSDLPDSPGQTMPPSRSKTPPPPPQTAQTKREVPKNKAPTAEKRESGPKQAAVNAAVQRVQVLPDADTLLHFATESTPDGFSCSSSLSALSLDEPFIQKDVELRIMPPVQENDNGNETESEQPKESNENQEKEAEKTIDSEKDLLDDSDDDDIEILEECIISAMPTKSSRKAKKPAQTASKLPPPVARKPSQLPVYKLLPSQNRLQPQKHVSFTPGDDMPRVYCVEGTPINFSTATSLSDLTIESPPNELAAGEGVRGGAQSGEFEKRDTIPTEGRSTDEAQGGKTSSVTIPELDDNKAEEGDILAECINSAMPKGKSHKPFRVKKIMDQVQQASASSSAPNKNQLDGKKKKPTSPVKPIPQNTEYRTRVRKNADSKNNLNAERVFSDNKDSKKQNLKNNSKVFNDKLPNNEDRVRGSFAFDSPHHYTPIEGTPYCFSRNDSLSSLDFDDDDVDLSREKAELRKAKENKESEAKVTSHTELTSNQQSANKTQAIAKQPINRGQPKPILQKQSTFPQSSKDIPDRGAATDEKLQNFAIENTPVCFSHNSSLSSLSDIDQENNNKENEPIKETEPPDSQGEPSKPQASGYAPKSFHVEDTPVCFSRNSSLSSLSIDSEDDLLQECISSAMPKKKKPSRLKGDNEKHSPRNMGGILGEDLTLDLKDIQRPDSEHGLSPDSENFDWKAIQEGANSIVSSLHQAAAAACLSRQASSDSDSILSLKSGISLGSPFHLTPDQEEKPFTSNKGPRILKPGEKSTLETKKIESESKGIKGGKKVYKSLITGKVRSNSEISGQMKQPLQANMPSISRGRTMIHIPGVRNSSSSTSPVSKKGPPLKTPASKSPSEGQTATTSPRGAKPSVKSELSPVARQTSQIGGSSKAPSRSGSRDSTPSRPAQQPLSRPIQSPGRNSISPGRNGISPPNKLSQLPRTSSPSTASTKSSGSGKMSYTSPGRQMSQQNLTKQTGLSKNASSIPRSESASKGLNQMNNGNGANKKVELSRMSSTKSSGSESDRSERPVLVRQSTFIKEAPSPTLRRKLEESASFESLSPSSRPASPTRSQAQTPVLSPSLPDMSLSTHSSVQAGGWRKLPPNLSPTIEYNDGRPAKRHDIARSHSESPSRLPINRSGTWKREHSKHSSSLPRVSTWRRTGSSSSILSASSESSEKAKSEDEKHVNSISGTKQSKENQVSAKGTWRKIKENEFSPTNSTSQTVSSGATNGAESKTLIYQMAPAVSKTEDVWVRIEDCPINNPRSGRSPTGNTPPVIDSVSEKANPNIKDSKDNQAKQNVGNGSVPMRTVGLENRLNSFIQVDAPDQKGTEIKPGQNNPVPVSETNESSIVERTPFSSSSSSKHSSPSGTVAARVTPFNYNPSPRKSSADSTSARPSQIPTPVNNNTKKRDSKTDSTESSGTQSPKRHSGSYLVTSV

One assay deals with Histone-lysine N-methyltransferase 2A (Homo sapiens, UniProt Q03164). Nature of the assay: Competitive binding affinity to full length wild type MLL (unknown origin).
Regarding `CC[C@H](C)[C@H](NC(=O)[C@H](CC(=O)O)NC(=O)[C@H](CO)NC(=O)CCNC(=S)Nc1ccc(-c2c3ccc(=O)cc-3oc3cc(O)ccc23)c(C(=O)O)c1)C(=O)N[C@@H](CSCc1ccccc1)C(=O)N[C@@H](CC(=O)O)C(=O)N[C@@H](Cc1ccccc1)C(=O)N[C@H](C(=O)N[C@@H](CC(C)C)C(=O)N[C@@H](CCCCN)C(=O)N[C@@H](CC(N)=O)C(=O)N[C@@H](Cc1ccc(O)cc1)C(=O)N1CCC[C@H]1C(=O)O)[C@@H](C)CC`, binding was put at a Kd of 6 µM and the inhibition constant (Ki) – broadly, the equilibrium dissociation constant of an inhibitor or competing ligand from its target – was 24 µM. For `CC[C@H](C)[C@H](NC(=O)[C@H](CC(=O)O)NC(=O)[C@H](CO)NC(=O)CCNC(=S)Nc1ccc(-c2c3ccc(=O)cc-3oc3cc(O)ccc23)c(C(=O)O)c1)C(=O)N[C@@H](CSCc1ccccc1)C(=O)N[C@@H](CC(=O)O)C(=O)N[C@@H](Cc1ccccc1)C(=O)N[C@H](C(=O)N[C@@H](CC(C)C)C(=O)N[C@@H](CCCCN)C(=O)N[C@@H](CC(N)=O)C(=O)N[C@@H](Cc1ccc(O)cc1)C(=O)N1CCC[C@H]1C(N)=O)C(C)C` the same measures were 8.3 µM and 58 µM.

For the compound `CC[C@H](C)[C@H](NC(=O)[C@H](CC(=O)O)NC(=O)[C@H](CO)NC(=O)CCNC(=S)Nc1ccc(-c2c3ccc(=O)cc-3oc3cc(O)ccc23)c(C(=O)O)c1)C(=O)N[C@@H](CSCc1ccccc1)C(=O)N[C@@H](CC(=O)O)C(=O)N[C@@H](Cc1ccccc1)C(=O)N[C@H](C(=O)N[C@@H](CC(C)C)C(=O)N[C@@H](CCCCN)C(=O)N[C@@H](CC(N)=O)C(=O)N[C@H](C(=O)N1CCC[C@H]1C(N)=O)[C@@H](C)O)C(C)C`, the Kd – broadly, the free concentration of one partner at which half of the binding sites on the other are occupied at equilibrium, for simple one-to-one binding – is above 15 µM. Consider `CC[C@H](C)[C@H](NC(=O)[C@H](CC(=O)O)NC(=O)[C@H](CO)NC(=O)[C@@H]1CCCN1C(=O)[C@H](CC(C)C)NC(=O)[C@@H](NC(=O)[C@H](CC(N)=O)NC(=O)CNC(=O)[C@H](CS)NC(=O)[C@H](CC(=O)O)NC(C)=O)[C@@H](C)CC)C(=O)N[C@@H](CCSC)C(=O)N[C@@H](CC(=O)O)C(=O)N[C@@H](Cc1ccccc1)C(=O)N[C@H](C(=O)N[C@@H](CC(C)C)C(=O)N[C@@H](CCCCN)C(=O)N[C@@H](CC(N)=O)C(=O)N[C@H](C(=O)N1CCC[C@H]1C(=O)O)[C@@H](C)O)C(C)C`, for which the Kd was determined as 1 µM and the Ki was found to be 3 µM. For `CC[C@H](C)[C@H](NC(=O)[C@H](CC(=O)O)NC(=O)[C@H](CO)NC(=O)CCNC(=S)Nc1ccc(-c2c3ccc(=O)cc-3oc3cc(O)ccc23)c(C(=O)O)c1)C(=O)N[C@@H](CSCc1ccccc1)C(=O)N[C@@H](CC(=O)O)C(=O)N[C@@H](Cc1ccccc1C)C(=O)N[C@H](C(=O)N[C@@H](CC(C)C)C(=O)N[C@@H](CCCCN)C(=O)N[C@@H](CC(N)=O)C(=O)N[C@@H](Cc1ccc(O)cc1)C(=O)N1CCC[C@H]1C(=O)O)[C@@H](C)CC` the same measures were 3.3 µM and 22 µM. On the same counts, the results for `CC[C@H](C)[C@H](NC(=O)[C@H](CC(=O)O)NC(=O)[C@H](CO)NC(=O)CCNC(=S)Nc1ccc(-c2c3ccc(=O)cc-3oc3cc(O)ccc23)c(C(=O)O)c1)C(=O)N[C@@H](CSCc1ccccc1)C(=O)N[C@@H](CC(=O)O)C(=O)N[C@@H](Cc1ccccc1)C(=O)N[C@H](C(=O)N[C@@H](CC(C)C)C(=O)N[C@@H](CCCCN)C(=O)N[C@@H](CC(N)=O)C(=O)N[C@@H](Cc1ccc(O)cc1)C(=O)N1CCC[C@H]1C(N)=O)[C@@H](C)CC` are 7.3 µM and 32 µM.

The target of another assay is T1, Adenomatous polyposis coli protein (Homo sapiens, UniProt P25054). Nature of the assay: Binding affinity to APC (unknown origin) assessed as inhibition constant by ITC analysis. (ITC needs no label: the signal is the heat of the interaction.)
Regarding `CCC(C)C(NC(=O)C(C)NC(=O)[C@H](CC(C)C)NC(=O)[C@H](CCC(N)=O)NC(=O)[C@H](CCC(=O)O)NC(=O)CNC(=O)CNC(C)=O)C(N)=O` (stereo partly drawn), the inhibition constant Ki amounted to 44.6 µM.

Another assay deals with T1, Adenomatous polyposis coli protein. As to the kind of experiment: Binding affinity to APC (unknown origin) assessed as dissociation constant by ITC analysis.
`CCC(C)C(NC(=O)C(C)NC(=O)[C@H](CC(C)C)NC(=O)[C@H](CCC(N)=O)NC(=O)[C@H](CCC(=O)O)NC(=O)CNC(=O)CNC(C)=O)C(N)=O` (stereo partly drawn): the Kd was determined as 0.036 µM.

Values taken from ChEMBL document CHEMBL5230108, “Computational methods-guided design of modulators targeting protein-protein interactions (PPIs)” (Eur J Med Chem, 2020).
